Values quoted from earlier work in patent US11103509B2 (University of Kentucky Research Foundation, priority 2018, dated 2021).

Tested on: pain in cancer patients
Details: NCT00490139 Control group: trastuzumab 8 mg/kg IV, then 6 mg/kg IV every 3 weeks, 52 weeks; cited from earlier work

trastuzumab
Arthralgia, Patient counts: 402/2076 | Arthralgia, patient percentage: (19.36%) | Back Pain, patient percentage: (6.17%) | Bone Pain, Patient counts: 123/2076 | Bone Pain, patient percentage: (5.92%) | Headache, Patient counts: 262/2076 | Headache, patient percentage: (12.62%) | Musculoskeletal pain, patient percentage: (5.30%) | Pain in Extremity, Patient counts: 175/2076 | Pain in Extremity, patient percentage: (8.43%)
